In paper PMC4506051, “Pharmacokinetic Profiles of Active Ingredients and Its Metabolites Derived from Rikkunshito, a Ghrelin Enhancer, in Healthy Japanese Volunteers: A Cross-Over, Randomized Study” (PLoS ONE, 2015):

Legend:
[1] = Exploratory trial: amount of rikkunshito ingredients in urine; type: in vivo, human; details: mean ± S.D., n = 4; for Amount in urine, 0–4 h: 0–4 h after single oral rikkunshito 7.5 g
Description: (§1) In the first exploratory trial, 20-mL blood samples were collected from the cutaneous vein in the subjects’ forearm via a blood sampling tube that contained heparin at 0 (preadministration), 0.5, 1, 2, 4, and 8 h after a single oral administration of rikkunshito (Lot E24652). The dose of rikkunshito used in this trial was 7.5 g/day, which is the clinical daily dose, to widely explore rikkunshito-derived ingredients that enter the blood. Along with plasma, urine samples were collected at three points: between dinner and bedtime (preadministration), between 0 and 4 h after administration, and between 4 and 8 h after administration. The blood was immediately centrifuged at 1700 ×g for 10 min to obtain plasma. Plasma and urine fractions were stored at −80°C or lower until analysis.
(§2) For quantification of synephrine, 5 µL of standard solution or methanol was added to 100 µL plasma or urine samples followed by mixing. Ten microliters of erythromycin [internal standard (IS)] solution was added to the solutions followed by mixing and centrifugation (20,400 ×g, 5 min, 4°C). The supernatants were loaded onto an Ostro 96-well plate (Waters) and centrifuged (1500 ×g, 3 min, 4°C) followed by injection into the LC–MS/MS.
(§3) For quantification of 30 ingredients other than atractylodin and synephrine, 25 µL of standard solution or methanol was added to 500 µL plasma or urine samples followed by mixing. Atractylenolide III or digoxin (IS) solution (50 μL) was added to the solutions followed by mixing. For urine, 400 µL of blank plasma was added to the solutions. Ammonium acetate solution (100 mM, 100 or 400 µL) was added to the solutions followed by mixing. For enzymatic treatment, plasma and urine samples were incubated with β-glucuronidase (100 units in 100 mM ammonium acetate) for 2 h at 37°C. A solid-phase cartridge (OASIS HLB, 30 mg/1cc, Waters) was conditioned with methanol and 10 mM ammonium acetate solution, and the samples were loaded onto the cartridge. The cartridge was washed water : methanol (9:1, v/v), and 1.5 mL of methanol and 30 µL of propylene glycol were added to the cartridge to elute the analytes. The mixtures were dried at 25°C under a stream of nitrogen gas. Furthermore, 100 μL of 10 mM ammonium acetate : methanol (8:2, v/v) was added to the dried samples followed by mixing and sonication. The solutions were filtered (0.22 µm) and followed by injection into the LC–MS/MS system. […] Those analytical conditions are summarized in S2 Table and S3 Table.

[2] = Formation of ingredients derived from rikkunshito in formulation, blood, and urine (S11 Table summary); details: after rikkunshito administration, per ingredient in the formulation; for Formation of ingredients: form found in Urine: BQL = below the quantification limit
[3] = Exploratory trial: plasma concentration of rikkunshito ingredients after single oral rikkunshito 7.5 g; type: in vivo; details: mean ± S.D., n = 4
Description: A random sequence was generated using a computer. The safety endpoint was evaluated in all volunteers.
as §1, §2, §3

[4] = Stability of ingredients in gastric pH solution (pH 1.2, 37°C); type: physicochemical; details: rikkunshito in acidic solution (pH 1.2) at 37°C
Description: Rikkunshito gradually dissolved in acidic solution (pH 1.2) at 37°C, and the concentration of atractylodin after adding 0.25, 0.5, 1, and 2 h was measured by gas chromatography–mass spectrometry.

[5] = of the ingredient in the formulation; summary table, reference not given; cited from earlier work

Substance	Amount in urine, 0–4 h [1]	Amount in urine, 0–4 h ([1]; listed as liquiritin apioside)	Amount in urine, 4–8 h ([1]; 4–8 h after single oral rikkunshito 7.5 g)	Amount in urine, Pre ([1]; preadministration (between dinner and bedtime))	Formation of ingredients: form found in Blood [2]	Formation of ingredients: form found in Urine [2]	Plasma concentration, 0 h ([3]; 0 h (preadministration), single oral rikkunshito 7.5 g)	Plasma concentration, 0.5 h ([3]; 0.5 h after single oral rikkunshito 7.5 g)	Plasma concentration, 1 h ([3]; 1 h after single oral rikkunshito 7.5 g)	Plasma concentration, 2 h ([3]; 2 h after single oral rikkunshito 7.5 g)	Plasma concentration, 4 h ([3]; 4 h after single oral rikkunshito 7.5 g)	Plasma concentration, 8 h ([3]; 8 h after single oral rikkunshito 7.5 g)	Stability in gastric pH solution, Quantitative value ([4]; 0.5 h)	Stability in gastric pH solution, Quantitative value ([4]; 1 h)	Stability in gastric pH solution, Quantitative value ([4]; 2 h)	Metabolite by enterobacterium [5]
Liquiritin apioside	4330 ± 1530 ng	4,330 ng	2370 ± 1080 ng	BQL	Liquiritin apioside Liquiritigenin^c	Liquiritin apioside Liquiritigenin^c	BQL	0.34 ± 0.0918 ng/mL	0.473 ± 0.0942 ng/mL	0.42 ± 0.163 ng/mL	0.204 ± 0.139 ng/mL	BQL	1250 ng/mL	1340 ng/mL	1190 ng/mL	Liquiritigenin^b
isoliquiritin apioside					Isoliquiritigenin Conjugate metabolites of isoliquiritigenin	Isoliquiritigenin Conjugate metabolites of isoliquiritigenin										Isoliquiritigenin
